High-throughput results as filed in PubChem.
TDP1 cell noCPT – qHTS for Inhibitors of human tyrosyl-DNA phosphodiesterase 1 (TDP1): qHTS in cells in absence of CPT; 15% of 420,000 active; Potency, µM (titrated, usually from 46.2 µM), actives largely listed as inhibitors; AID 686978, 2013; DT40 Tdp1-/- hTDP1 cells, no CPT, ATP luminescence, 48 h; note: nearly all actives have a fitted effect of over 55% in size
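Readout: luminescence from CellTiter-Glo after 30 min in the dark at RT. Cells: DT40 Tdp1-/- with stable hTDP1, 400/well. Exposure: compounds alone, ≥48 hr, 37 °C.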
TDP1 inh – TDP1 (human) enzyme inhibition | recombinant TDP1, AlphaScreen DNA substrate cleavage | Potency, µM (titrated, usually from 130 µM), most hits filed as inhibitors | 0.28% of 350,000 active | AID 485290; note: nearly all actives have a fitted effect of over 40% in size
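Here, a 5' biotin and 3' phosphotyrosine-FITC DNA oligonucleotide reports Tdp1 activity: intact substrate bridges AlphaScreen beads, while cleavage leaves a 3' phosphate and drops signal. All incubations at room temperature.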
miR-21 reporter – raises the signal of a miR-21 reporter; Potency, µM (doses to about 38.3 µM); HeLa miR-21 FLuc reporter, luciferase, 48 h; AID 2288; 340,000 tested, under 10 active; active = well fitted rising curve with a large enough effect; inconclusive = small, poorly fitted or top-dose-only effect; inactive = no such curve, though single readings can be large or run the other way;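 further: miR-21 action dims this reporter so a rising signal means less miR-21 action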
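Luminescence from a firefly luciferase reporter carrying a miR-21 binding site downstream, stably expressed under a CMV promoter in HeLa cells that make miR-21 endogenously, reports miRNA modulation after 48 h compound exposure up to approximately 40uM final.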
uPA generation – inhibitors of cell surface uPA generation; Potency, µM (titrated, usually from 38.3 µM), most hits filed as inhibitors; cell surface uPA generation assay, qHTS; 0.31% of 330,000 active; AID 540303; active = well fitted inhibition curve with a large enough effect; inconclusive = small, poorly fitted or top-dose-only effect; inactive = no such curve, though single readings can be large or run the other way; tested in mouse RAW 264.7 cells; note: nearly all actives have a fitted effect of over 55% in size
TDP1 cell CPT – DT40-hTDP1 cell growth loss with CPT | Potency, µM (top dose mostly 46.2 µM), actives largely listed as inhibitors | AID 686979 | chicken DT40 Tdp1-/-;hTDP1 cells + 20 nM CPT, ATP luminescence, 48 h | 12% of 420,000 active; note: nearly all actives have a fitted effect of over 55% in size
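Cell growth measured by CellTiter-Glo luminescence after a minimum 48 h, 37 C compound exposure with 20 nM CPT in Tdp1-knockout DT40 cells stably expressing hTDP1, seeded 400/well; qHTS titration format.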
Each line names hits and unclear results; the compound was inactive in the other large screens. Most compounds without a hit are left out; they make up all but 16% or so of the library. Unless noted, calls come from the whole dose curve; as a rule, active = well fitted curve in the direction sought with a large enough effect; inconclusive = small, poorly fitted or top-dose-only effect, or another doubt; inactive = no such curve, though single readings can be large; an effect the other way counts as inactive or inconclusive.

Cc1ccc(CSc2nc3c(c(=O)[nH]2)C(c2cccc(F)c2F)CC(=O)N3)cc1 (centres undefined)	TDP1 cell noCPT inconclusive, TDP1 cell CPT 15µM (no result: uPA generation)
CC(C)(C)c1ccc(S(=O)(=O)N2CCCC2C(=O)N2CCOCC2)cc1 (centres undefined)	none
Cc1cc2cc(CN(Cc3cccs3)C(c3nnnn3C(C)(C)C)C(C)C)c3nnnn3c2cc1C (centres undefined)	TDP1 cell noCPT 9.2µM, TDP1 cell CPT 15µM
O=C(COC(=O)/C=C/c1cccc(C(F)(F)F)c1)NC(=O)NC1CCCC1	none (no result: miR-21 reporter)
NS(=O)(=O)c1ccc(CCNC(c2ccccc2)c2ccccc2)cc1	TDP1 cell noCPT 23µM, TDP1 cell CPT inconclusive (no result: TDP1 inh, uPA generation)
c1ccc(C(NCCNC(c2ccccc2)c2ccccc2)c2ccccc2)cc1	TDP1 cell noCPT 21µM, TDP1 cell CPT inconclusive
COc1ccccc1C(=O)Nc1ccc2c(c1)nc(CCNC(=O)c1ccco1)n2C	TDP1 cell noCPT 0.92µM, uPA generation inconclusive, TDP1 cell CPT 1.3µM
Cn1c(CCNC(=O)c2ccco2)nc2cc(NS(=O)(=O)c3ccccc3)ccc21	TDP1 cell noCPT inconclusive, TDP1 cell CPT 21µM
Cn1c(CCNC(=O)c2ccco2)nc2cc(NC(=O)c3ccco3)ccc21	TDP1 cell CPT inconclusive
Oc1c(C(c2cccc(Br)c2)N2CCCC2)sc2nc(-c3ccco3)nn12 (centres undefined)	none (no result: uPA generation)
CCC1CCCCN1C(=O)CSc1nnc(-c2ccc(OC)c(OC)c2)o1 (centres undefined)	TDP1 cell noCPT inconclusive, TDP1 cell CPT inconclusive (no result: uPA generation)
CCC1CCCCN1C(=O)CSc1nnc(-c2cccc(Cl)c2)o1 (centres undefined)	TDP1 cell noCPT 23µM, TDP1 cell CPT 26µM
CC1Cc2ccccc2N1C(=O)CSc1nnc(-c2cccc(Cl)c2)o1 (centres undefined)	TDP1 cell noCPT inconclusive, TDP1 cell CPT 15µM (no result: uPA generation)
CCC1CCCCN1C(=O)CSc1nnc(-c2ccc(Cl)cc2)o1 (centres undefined)	TDP1 cell noCPT 16µM, uPA generation inconclusive, TDP1 cell CPT 21µM
C/C(=N\Nc1nc(-c2ccccn2)nc2ccccc12)c1ccc(F)cc1	TDP1 cell noCPT 5.8µM, TDP1 cell CPT 2.6µM (no result: TDP1 inh)
C/C(=N/Nc1nc(-c2ccccc2F)nc2ccccc12)c1ccccc1O	TDP1 cell noCPT 9.2µM, TDP1 cell CPT 7.3µM
Oc1ccccc1Nc1nc(-c2ccccc2O)nc2ccccc12	none (no result: TDP1 inh)
C/C(=N\Nc1nc(-c2ccccc2O)nc2ccccc12)c1ccccc1	TDP1 cell noCPT 7.3µM, TDP1 cell CPT inconclusive
Clc1ccc(-c2nc3c4ccccc4ccn3c2CC2CCCCC2)cc1	none (no result: TDP1 inh, miR-21 reporter, uPA generation)
FC(F)(F)c1ccccc1Cc1c(-c2ccc(Cl)cc2)nc2c3ccccc3ccn12	TDP1 cell noCPT 26µM, TDP1 cell CPT inconclusive (no result: TDP1 inh, miR-21 reporter, uPA generation)
FC(F)(F)c1ccccc1Cc1c(-c2cccc(Cl)c2)nc2c3ccccc3ccn12	TDP1 cell noCPT 21µM, TDP1 cell CPT inconclusive (no result: TDP1 inh, miR-21 reporter, uPA generation)
Cn1c2ccccc2c2c(C(=O)N3CCN(c4cccc(C(F)(F)F)c4)CC3)cn(C3CCCCC3)c(=O)c21	TDP1 cell noCPT 16µM, TDP1 cell CPT inconclusive (no result: uPA generation)
Cn1c2ccccc2c2c(C(=O)N3CCN(c4ccccc4)CC3)cn(C3CCCC3)c(=O)c21	TDP1 cell noCPT 8.2µM, TDP1 cell CPT 26µM
CN1CCN(CCCNC(=O)c2cn(C3CCCCC3)c(=O)c3c2c2ccccc2n3C)CC1	none
CC(=O)c1ccc(N2CCN(C(=O)c3cn(C)c(=O)c4c3c3ccccc3n4C)CC2)cc1	TDP1 cell noCPT 23µM, TDP1 cell CPT inconclusive (no result: uPA generation)
Cn1cc(C(=O)N2CCN(c3cccc(C(F)(F)F)c3)CC2)c2c3ccccc3n(C)c2c1=O	TDP1 cell noCPT 16µM, TDP1 cell CPT 23µM (no result: uPA generation)
NNC(=O)/C(=C\c1cccs1)NC(=O)c1ccccc1	none
O=C(CSc1nnc(-c2ccccc2)o1)n1c2c(c3ccccc31)CCCC2	none (no result: TDP1 cell noCPT, uPA generation, TDP1 cell CPT)
O=S(=O)(N/N=C/c1cccnc1)c1ccc(Cl)c(Cl)c1	TDP1 cell CPT inconclusive
COC(=O)C1=C(C(=O)OC)[C@@H]2Nc3ccccc3[C@@]23C[C@@H](C(=O)OC)N(C(=O)c2ccc(Br)cc2)C3=N1	TDP1 cell noCPT inconclusive, TDP1 cell CPT inconclusive
CCCCc1c(C)nc2ccc(C)cc2c1SCCC(=O)O	TDP1 cell noCPT 9.2µM, TDP1 cell CPT inconclusive
CC(C)CN1CCC(C(=O)NCC2CCCO2)CC1 (centres undefined)	none (no result: TDP1 inh)
Cc1nnc(-c2ccc(Oc3ccc(Cl)cc3)c([N+](=O)[O-])c2)o1	TDP1 cell noCPT 23µM, TDP1 cell CPT inconclusive
O=[N+]([O-])c1cc(-c2nnc(-c3ccccc3)o2)ccc1Oc1ccc(Cl)cc1	none
Nc1nn(-c2ccccc2)c(N)c1N=Nc1cccc(F)c1	TDP1 cell noCPT 2.6µM, uPA generation 1.4µM, TDP1 cell CPT 1.6µM
Nc1[nH]n(-c2ccccc2)c(=O)c1N=Nc1ccc2c(c1)OCO2	TDP1 cell noCPT inconclusive, uPA generation inconclusive (no result: TDP1 inh)
Nc1nn(-c2ccccc2)c(N)c1N=Nc1ccc2c(c1)OCO2	TDP1 cell noCPT 4.1µM, TDP1 cell CPT 3.7µM
O=C(NCc1ccc2c(c1)OCO2)C1CCCN1C(=O)Nc1ccc(Cl)cc1 (centres undefined)	none
Cc1cc(C)n2c(SCC(=O)Nc3c(C)n(C)n(-c4ccccc4)c3=O)nnc2n1	none
CN1CCN(C(=O)CSc2nc(-c3cccs3)cc(-c3cccs3)c2C#N)CC1	TDP1 cell noCPT 18µM, TDP1 cell CPT inconclusive
CCN(CC)C(=O)CSc1nc(N)c(C#N)c(-c2cccs2)c1C#N	none (no result: uPA generation)
CCN(CC)C(=O)CSc1nc(-c2cccs2)cc(-c2cccs2)c1C#N	TDP1 cell noCPT inconclusive, TDP1 cell CPT 23µM
CCOC(=O)C1=C(O)/C(=C/c2ccc(CNC(=O)C(=O)Nc3ccc(C)cc3)o2)N=C1C	TDP1 cell noCPT 6.5µM, TDP1 cell CPT inconclusive
C[C@H]1CC2[C@@H]3CCC4=CC(=O)C=C[C@]4(C)[C@@]3(Cl)[C@@H](O)C[C@]2(C)[C@@]1(O)C(=O)CO (some centres undefined)	none (no result: TDP1 cell noCPT, miR-21 reporter, uPA generation, TDP1 cell CPT)
COc1ccc(-n2c(=O)c3c4c(sc3n(Cc3ccc(F)cc3)c2=O)CCCC4)c(OC)c1	TDP1 cell noCPT 15µM, TDP1 cell CPT 21µM (no result: uPA generation)
COc1ccc(-n2c(=O)c3c4c(sc3n(Cc3ccc(C)cc3C)c2=O)CCC4)c(OC)c1	TDP1 cell noCPT inconclusive, TDP1 cell CPT 18µM (no result: uPA generation)
COc1ccc(-n2c(=O)c3c4c(sc3n(Cc3ccccc3Cl)c2=O)CCC4)c(OC)c1	TDP1 cell noCPT 21µM, TDP1 cell CPT inconclusive (no result: uPA generation)
COc1ccc(-n2c(=O)c3c4c(sc3n(Cc3cc(=O)n5c(C)cccc5n3)c2=O)CCC4)c(OC)c1	TDP1 cell noCPT inconclusive, TDP1 cell CPT inconclusive (no result: uPA generation)
O=S(=O)(c1cccs1)N1CCN(CC(O)COC2CCCc3ccccc32)CC1 (centres undefined)	none
